pEC50, pIC50: −log10 of the molar value.
molecular target: cap-dependent endonuclease (RNP fraction containing PB1•PB2•PA complex) (Influenza A virus, UniProt P15659); test: biochemical; set-up: species or system A/WSN/33 virus; details: CEN IC50

Going from `CN1CN(C2c3ccccc3CSc3ccccc32)n2ccc(=O)c(O)c2C1=O` (stereo not drawn) [Example 321] to `CC(CN1CCOCC1)N1CN(C2c3ccccc3CSc3ccccc32)n2ccc(=O)c(O)c2C1=O` (stereo not drawn) [Example 483], the pIC50 falls from 7.72 to 7.00 (0.72 log units).

First: C[C@H](N1CN([C@H]2c3cc(F)ccc3CSc3ccc(F)cc32)n2ccc(=O)c(O)c2C1=O)C(F)(F)F [Example 418]
Second: C[C@H](N1CN([C@H]2c3ccccc3CSc3cc(F)ccc32)n2ccc(=O)c(O)c2C1=O)C(F)(F)F [Example 459]
The pIC50 of the first is 0.38 log units higher: 6.92 for the first, 6.54 for the second. The first is the more potent here.

`CCN1C(=O)c2c(O)c(=O)ccn2C(C2c3ccccc3CSc3ccccc32)N1CC` (stereo not drawn) [Example 502] and `CC(C)N1C(=O)c2c(O)c(=O)ccn2N(C2c3ccccc3CCc3ccccc32)C1CCN` (stereo not drawn) [Example 533] are within 0.2 log units of each other in pIC50: 7.38 for the first, 7.19 for the second.

Compared with `O=C(O)c1cn2c(c(O)c1=O)C(=O)N1CCCCN1C2C(c1ccccc1)c1ccccc1` (stereo not drawn) [Example 507], `COCCCC1N(C(C)C)C(=O)c2c(O)c(=O)ccn2N1C1c2ccccc2CCc2ccccc21` (stereo not drawn) [Example 522] is 0.21 log units higher in pIC50: 7.20 for the first, 7.41 for the second.

`CC(C)N1C(=O)c2c(O)c(=O)ccn2N(C2c3ccccc3CCc3ccccc32)C1CCCN` (stereo not drawn) [Example 534] and `CC(C)N1C(=O)c2c(O)c(=O)ccn2N(C2c3ccccc3CCc3ccccc32)C1CCN(C)C` (stereo not drawn) [Example 537] are within 0.2 log units of each other in pIC50: 6.78 for the first, 6.82 for the second.

Going from `CCN(CC)CCC1N(C(C)C)C(=O)c2c(O)c(=O)ccn2N1C1c2ccccc2CCc2ccccc21` (stereo not drawn) [Example 538] to `CN(C)CC1N(CCO)C(=O)c2c(O)c(=O)ccn2N1C1c2ccccc2CCc2ccccc21` (stereo not drawn) [Example 551], the pIC50 rises from 6.71 to 7.39 (0.68 log units). The second is the more potent here.

In the case of `N#Cc1ccccc1N1CC(C2c3ccccc3CCc3ccccc32)n2ccc(=O)c(O)c2C1=O` (stereo not drawn) [Example 568], the pIC50 was 6.58.

same assay, conditions: RNP from A/WSN/33 virus, capped Cy3/BHQ2 30mer RNA substrate, 60 minutes at room temperature; read-out: CEN IC50

`CSCC1N(C(C)C)C(=O)c2c(O)c(=O)ccn2N1C1c2ccccc2CCc2ccccc21` (stereo not drawn) [Example 514] and `CCCC1N(C(C)C)C(=O)c2c(O)c(=O)ccn2N1C1c2ccccc2CCc2ccccc21` (stereo not drawn) [Example 518] are the same in pIC50: 7.31 for the first, 7.31 for the second.

`COCCCC1N(C(C)C)C(=O)c2c(O)c(=O)ccn2N1C1c2ccc(F)cc2CCc2cc(F)ccc21` (stereo not drawn) [Example 526] and `CCN(CC)CC1N(CCO)C(=O)c2c(O)c(=O)ccn2N1C1c2ccccc2CCc2ccccc21` (stereo not drawn) [Example 550] are within 0.2 log units of each other in pIC50: 7.36 for the first, 7.38 for the second.

With `COCCN1C(=O)c2c(O)c(=O)c(C(=O)O)cn2N(C2c3ccccc3CCc3ccccc32)C1CCSC` (stereo not drawn) [Example 556] the pIC50 was 7.64.

tested on: influenza virus; test: microbe, parasite or virus in culture; format: cell-based, influenza virus (MDBK or MDCK cells); details: unidentified influenza virus, 72 h, read-out: CPE EC50, effective concentration to achieve 50% CPE inhibition, 3 days incubation, WST-8

Compared with `CN1CN(C2c3ccccc3CSc3ccccc32)n2ccc(=O)c(O)c2C1=O` (stereo not drawn) [Example 321], `C[C@H](N1CN([C@H]2c3ccccc3CSc3cc(F)ccc32)n2ccc(=O)c(O)c2C1=O)C(F)(F)F` [Example 459] is 0.40 log units lower in pEC50: 7.72 for the first, 7.32 for the second.

In the case of `C[C@H](N1CN([C@H]2c3cc(F)ccc3CSc3ccc(F)cc32)n2ccc(=O)c(O)c2C1=O)C(F)(F)F` [Example 418], the pEC50 was 7.14.

— patent publication US9815835B2, “Substituted polycyclic carbamolypyridone derivative” (priority 2009, dated 2017)
